scFv variants of Ab-14 (heavy chain) against a SARS-CoV-2 spike peptide

Data: MIT Lincoln Laboratory AlphaSeq set, Li et al. 2023, doi:10.1038/s41467-023-39022-2, as distributed in FLAb.

Antigen: PDVDLGDISGINAS, a 14-residue peptide of the SARS-CoV-2 spike HR2 region.

Each scFv is VH, the linker GGGGSGGGGSGGGGS, VL, as in the parent Ab-14, and differs from it in the CDRs of the heavy chain only.
VH: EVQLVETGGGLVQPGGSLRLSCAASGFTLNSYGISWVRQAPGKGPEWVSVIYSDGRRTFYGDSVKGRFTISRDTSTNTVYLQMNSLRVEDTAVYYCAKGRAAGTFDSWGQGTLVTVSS
VL: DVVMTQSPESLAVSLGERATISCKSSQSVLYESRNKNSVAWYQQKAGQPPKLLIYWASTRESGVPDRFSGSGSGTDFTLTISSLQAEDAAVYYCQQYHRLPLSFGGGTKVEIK

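The parent was found by panning a naive human phage display library on the peptide. The variants were designed computationally from a first round of random CDR variants and then made and measured. Their group label is 14H_GP_Gibbs (GP: Gaussian process model; Gibbs: Gibbs sampling; a sequence that several methods proposed may carry one label only). Affinity was read by AlphaSeq, a pooled yeast mating assay with surface-displayed partners. Binding brings cells together so that they mate, and sequencing counts the barcode pairs among the diploids. Scores were corrected for input abundance and mapped to Kd with protein pairs of known affinity run in the same pool. There are six technical replicates.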

Substitutions are numbered in sequence along the VH above, starting at 1 (not Kabat).
The read-out is the apparent dissociation constant on a log10 scale (nM): the lower, the stronger.
Where no diploid with the target was found in that replicate, the entry reads "nd": below detection, most likely a poor binder, though not proof of it.
The range of this assay differs from that of the first round, and the authors advise against merging the two.
Of ten entries with the parent sequence, four were seen in most replicates (averages 0.34 to 2.37), three in one and three in none, so single entries are noisy.
Three control strains display no target. For all heavy chain designs, 1% of the pairings with them gave a signal, with a median of 2.08 and one signal in twenty below 0.84, so weak values seen in few replicates may be background. For each scFv, signals with the empty controls are counted beside the result.
The authors' rule: three or more of the six replicates give a measured affinity, fewer mean a poor binder.

G61A S63R R100Q S107L: nd, nd, nd, nd, 1.92, 3.28 (controls 0 of 18).
T28E R56H A101Q: 1.40, nd, 1.35, 1.92, nd, nd (controls 0 of 18).
T28N S63D R100E S107R: 0.77, nd, 1.16, 1.69, 1.54, 2.37 (controls 0 of 18).
T28S S31E S63Q S107K: 0.65, 0.34, 0.33, 0.19, 0.32, 0.87 (controls 1 of 18).
T28E S31D G61H S63W A101T: nd, 2.32, 2.10, 2.82, nd, nd (controls 1 of 18).
T28N G61Q R100K A101V: 0.74, 0.56, 0.27, 0.35, 0.38, 0.56 (controls 0 of 18).
T28D S31E G61A A101E: 0.11, -0.04, -0.08, -0.30, -0.40, -0.24 (controls 1 of 18).
G61I S63D R100K: 1.50, 1.41, 0.58, 2.03, 1.86, 0.85 (controls 0 of 18).
T28W S31D G61H A101T S107A: nd, nd, 1.23, 0.48, nd, 1.34 (controls 0 of 18).
T28E S63M A101T S107T: 1.20, 0.43, 0.76, 0.26, 0.58, 0.79 (controls 0 of 18).
T28N R100N A101L: 0.77, 1.01, 0.54, 0.62, 0.62, 0.77 (controls 0 of 18).
T28D G61A S63A A101Q: 0.74, 0.31, 0.47, -0.05, 0.15, 0.07 (controls 1 of 18).
T28D G61K A101T S107Q: nd, 0.79, nd, 0.08, 1.17, 0.18 (controls 0 of 18).
S63N R100N A101E S107T: 0.39, -0.37, -0.35, -0.51, -0.45, -0.21 (controls 0 of 18).
T28E G61I R100T A101T: -0.36, -0.33, -0.24, -0.14, -0.46, 0.08 (controls 0 of 18).
T28K S31E R56K A101T: -0.25, 0.39, -0.39, -0.32, 0.07, 0.02 (controls 0 of 18).
T28S S31E R100Q A101T S107L: 0.07, -0.11, -0.01, 0.04, 0.25, 0.16 (controls 0 of 18).
G26M T28S R100Q A101V: nd, nd, nd, 0.57, nd, nd (controls 0 of 18).
T28E S63A A101N: 0.76, 1.03, 1.08, 1.21, 1.11, 1.20 (controls 0 of 18).
T28G R100H A101V: 1.17, 0.77, 0.83, 1.13, 0.98, 0.67 (controls 1 of 18).
T28S S63K R100L A101N: 1.69, 1.41, 0.99, 0.91, 1.09, 0.95 (controls 0 of 18).
T28N G61Q S63R R100Q A101T: nd, 1.86, 1.64, 2.88, nd, nd (controls 0 of 18).
T28E S31E R100K A101T S107V: -0.01, -0.24, -0.29, -0.29, -0.46, 0.13 (controls 0 of 18).
T28C G61I R100E S107K: nd, nd, nd, nd, nd, nd (controls 0 of 18).
N30E S53A S107N: 0.19, 0.37, 0.50, 0.82, 0.66, 0.34 (controls 0 of 18).
T28E S31M G61I A101E: 1.08, 1.18, nd, -0.19, 1.04, nd (controls 0 of 18).
N30E S53A S63R R100Q: 0.00, -0.43, -0.27, -0.42, -0.74, 0.81 (controls 0 of 18).
T28D S63A R100Q S107Q: 1.10, 0.62, 0.68, 0.94, 0.70, 0.77 (controls 0 of 18).
T28V G61A S63Q R100K A101T: nd, nd, nd, nd, 1.81, nd (controls 1 of 18).
G26Y S31E R100Q S107K: nd, 1.13, nd, 0.47, 1.27, 0.59 (controls 0 of 18).
R56K G61I R100N A101V: 1.45, 0.54, 1.62, 0.65, 0.18, 0.96 (controls 1 of 18).
T28D S31E R56H A101T: nd, nd, 0.22, nd, 1.37, nd (controls 0 of 18).
R56Q G61S R100Q A101T: 0.98, -0.11, 0.20, 0.33, 0.26, 0.90 (controls 0 of 18).
T28G A101N: 1.61, 1.36, 1.71, 1.49, 0.92, 2.39 (controls 1 of 18).
T28D G61I R100H S107W: 0.86, 0.97, 0.71, 0.14, 0.67, 0.99 (controls 0 of 18).
S31E R56M S63A A101T: 0.43, 1.24, 0.47, -0.07, 0.12, 0.17 (controls 0 of 18).
T28D S31M G61I R100N: 0.23, -0.01, 0.03, -0.29, -0.22, 0.11 (controls 4 of 18).
G26K T28G G61A A101T: 2.12, 2.76, nd, 1.39, 2.08, 1.70 (controls 2 of 18).
T28Q G61A S63Q R100N: nd, 0.15, 1.58, 0.52, 1.63, 1.00 (controls 0 of 18).
T28S G61V R100N A101T S107T: -0.13, -0.62, -0.04, -0.79, -0.44, -0.61 (controls 0 of 18).
T28Q S31M G61A R100Q A101T: 1.01, 0.82, 1.26, 1.67, 1.11, nd (controls 1 of 18).
R56K S63R R100N A101E S107T: 0.44, 0.67, 0.44, -0.13, -0.05, 0.44 (controls 0 of 18).
T28E G61I R100S S107A: 0.27, 1.04, -0.34, 0.83, -0.08, 0.35 (controls 0 of 18).
G61S R100Q A101V S107D: 1.00, 0.33, 0.86, -0.07, 0.53, 0.27 (controls 0 of 18).
T28Q N30K S63N A101T: 2.94, 1.12, nd, 1.61, 1.89, 1.61 (controls 0 of 18).
T28E G61H A101L: 0.16, 0.21, 0.42, -0.03, 0.35, 0.37 (controls 2 of 18).

The 7 strongest on average among those seen in every replicate, once more:

{"changes": "T28S G61V R100N A101T S107T", "log10 Kd, replicates": "-0.13, -0.62, -0.04, -0.79, -0.44, -0.61", "empty controls": "0/18"}
{"changes": "S63N R100N A101E S107T", "log10 Kd, replicates": "0.39, -0.37, -0.35, -0.51, -0.45, -0.21", "empty controls": "0/18"}
{"changes": "T28E G61I R100T A101T", "log10 Kd, replicates": "-0.36, -0.33, -0.24, -0.14, -0.46, 0.08", "empty controls": "0/18"}
{"changes": "T28E S31E R100K A101T S107V", "log10 Kd, replicates": "-0.01, -0.24, -0.29, -0.29, -0.46, 0.13", "empty controls": "0/18"}
{"changes": "N30E S53A S63R R100Q", "log10 Kd, replicates": "0.00, -0.43, -0.27, -0.42, -0.74, 0.81", "empty controls": "0/18"}
{"changes": "T28D S31E G61A A101E", "log10 Kd, replicates": "0.11, -0.04, -0.08, -0.30, -0.40, -0.24", "empty controls": "1/18"}
{"changes": "T28K S31E R56K A101T", "log10 Kd, replicates": "-0.25, 0.39, -0.39, -0.32, 0.07, 0.02", "empty controls": "0/18"}